Source: ChEMBL document CHEMBL1777785, “A novel approach for predicting P-glycoprotein (ABCB1) inhibition using molecular interaction fields” (J Med Chem, 2011)

The chains behind the UniProt entries cited, without tags or fusion partners.
UniProt P08183, whole entry: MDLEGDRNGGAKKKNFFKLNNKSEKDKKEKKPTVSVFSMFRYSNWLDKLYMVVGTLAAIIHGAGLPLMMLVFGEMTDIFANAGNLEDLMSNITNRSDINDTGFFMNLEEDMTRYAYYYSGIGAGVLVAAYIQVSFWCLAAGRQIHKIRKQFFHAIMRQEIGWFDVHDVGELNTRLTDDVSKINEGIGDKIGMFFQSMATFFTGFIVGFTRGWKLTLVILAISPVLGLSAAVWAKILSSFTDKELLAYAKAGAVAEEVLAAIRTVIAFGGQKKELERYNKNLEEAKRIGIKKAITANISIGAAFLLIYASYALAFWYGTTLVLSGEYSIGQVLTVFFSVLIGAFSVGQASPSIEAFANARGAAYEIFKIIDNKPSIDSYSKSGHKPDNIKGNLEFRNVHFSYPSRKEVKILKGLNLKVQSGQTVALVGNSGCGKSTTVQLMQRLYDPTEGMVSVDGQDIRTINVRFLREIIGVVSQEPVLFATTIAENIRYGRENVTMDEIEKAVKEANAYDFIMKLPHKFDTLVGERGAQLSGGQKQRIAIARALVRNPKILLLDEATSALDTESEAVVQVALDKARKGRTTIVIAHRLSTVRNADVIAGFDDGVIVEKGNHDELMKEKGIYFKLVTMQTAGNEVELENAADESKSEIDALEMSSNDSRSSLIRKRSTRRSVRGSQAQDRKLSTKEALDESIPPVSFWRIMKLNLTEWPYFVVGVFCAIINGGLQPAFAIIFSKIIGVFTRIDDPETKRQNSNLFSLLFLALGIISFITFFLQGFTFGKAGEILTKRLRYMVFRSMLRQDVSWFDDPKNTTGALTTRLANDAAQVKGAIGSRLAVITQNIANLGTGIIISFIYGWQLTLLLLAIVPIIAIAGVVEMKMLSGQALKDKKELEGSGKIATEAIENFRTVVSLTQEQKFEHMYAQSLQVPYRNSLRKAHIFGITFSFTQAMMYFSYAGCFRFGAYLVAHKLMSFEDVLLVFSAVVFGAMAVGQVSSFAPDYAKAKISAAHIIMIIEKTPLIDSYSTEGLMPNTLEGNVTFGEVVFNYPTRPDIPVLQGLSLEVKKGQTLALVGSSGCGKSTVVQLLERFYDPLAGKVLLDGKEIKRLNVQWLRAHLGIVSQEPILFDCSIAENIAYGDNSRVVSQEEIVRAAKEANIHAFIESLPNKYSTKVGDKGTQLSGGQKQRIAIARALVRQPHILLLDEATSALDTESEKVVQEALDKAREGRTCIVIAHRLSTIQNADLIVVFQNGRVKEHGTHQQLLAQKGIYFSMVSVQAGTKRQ

Target: ATP-dependent translocase ABCB1 (Homo sapiens, UniProt P08183)

O=C1CCc2ccc(OCCCCN3CCN(c4cccc(Cl)c4Cl)CC3)cc2N1 [ARIPIPRAZOLE]
IC50: 780 nM
